In ChEMBL document CHEMBL1137611, “Toward potent ghrelin receptor ligands based on trisubstituted 1,2,4-triazole structure. 2. Synthesis and pharmacological in vitro and in vivo evaluations” (J Med Chem, 2007) one finds IC50 and Kb data, which are given here for 3 compounds.

Amino acid sequences for entries named in this document (tags omitted).
UniProt Q92847, whole entry: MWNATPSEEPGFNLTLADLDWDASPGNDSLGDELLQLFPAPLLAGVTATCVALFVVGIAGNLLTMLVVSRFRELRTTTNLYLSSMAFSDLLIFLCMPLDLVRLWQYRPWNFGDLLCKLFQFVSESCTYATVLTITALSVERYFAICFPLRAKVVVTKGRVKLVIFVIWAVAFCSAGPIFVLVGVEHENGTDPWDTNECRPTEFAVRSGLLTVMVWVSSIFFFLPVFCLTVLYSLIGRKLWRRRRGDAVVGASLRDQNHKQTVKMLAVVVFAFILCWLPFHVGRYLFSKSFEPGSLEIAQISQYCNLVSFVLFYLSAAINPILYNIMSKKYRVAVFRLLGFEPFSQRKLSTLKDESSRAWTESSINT

Each structure is given as a SMILES string.

Assay [1] deals with T1, Growth hormone secretagogue receptor type 1 (Homo sapiens, UniProt Q92847). As to the kind of experiment: Displacement of [125I]His9-ghrelin from human cloned GHS1a receptor expressed in LLC PK1 cells. In kind it is cell-based. The method in brief: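 Membranes from LLC PK-1 cells transiently electroporated with hGHS-R1a, harvested ~48 h post-transfection (10 μg protein), incubated 60 min at 25 °C in Tris pH 7.3/MgCl2/EDTA/bacitracin buffer with 60 pM 125I-His9-ghrelin and increasing competitor concentrations. Nonspecific binding defined with 1 μM ghrelin. Bound and free separated on PEI-soaked GF/C filters; gamma counting.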
In general terms: Displacement assays read how much labelled ligand stays bound in the presence of the test substance.

Assay [2] has as its target T1, Growth hormone secretagogue receptor type 1. Put plainly: Antagonist activity at human GHS1a receptor expressed in CHO cells assessed as accumulation of intracellular calcium level. In kind it is functional, cell-based. On the technique in general: Calcium assays in cells follow changes in intracellular calcium, usually with a dye or a luminescent sensor.

`COc1ccc(Cn2c(CCc3ccccc3)nnc2[C@@H](Cc2c[nH]c3ccccc23)NC(=O)[C@H]2CCCCN2)cc1` had an IC50 in assay [1] of 0.011 µM. Also, the Kb in assay [2] was found to be 0.027 µM.

In the case of `COc1ccc(Cn2c(CCc3ccccc3)nnc2[C@@H](Cc2c[nH]c3ccccc23)NC(=O)CN)cc1`, the half-inhibitory concentration (IC50) in assay [1] was 0.032 µM. In assay [2], the antagonist dissociation constant (Kb) was 0.019 µM.

`COc1ccc(Cn2c(CCc3ccccc3)nnc2[C@@H](Cc2c[nH]c3ccccc23)NC(=O)C2CCCCN2)cc1` (single isomer, unassigned) gave an IC50 in assay [1] of 0.023 µM. Also, the antagonist dissociation constant (Kb) in assay [2] amounted to 0.053 µM.

Broadly, the IC50 is the concentration needed to halve the response being measured. A higher IC50 goes with lower potency. A word on the Kb: it is the equilibrium dissociation constant of an antagonist, usually derived from a functional assay.
